Results as given in patent US7932382B2, “Conformationally constrained Smac mimetics and the uses thereof” (The Regents of the University of Michigan, priority 2005, dated 2011).

Sequences of proteins named here, by UniProt entry; tags and fusion partners are left off. Residues count along the entry.
UniProt P98170, 241-356: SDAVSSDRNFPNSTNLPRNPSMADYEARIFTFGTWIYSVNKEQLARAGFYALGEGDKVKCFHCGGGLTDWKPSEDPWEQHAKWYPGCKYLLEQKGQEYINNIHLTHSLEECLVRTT

Biological target: human XIAP-BIR3 protein (residues 241-356) (Homo sapiens, UniProt P98170)
Details: Table 5

Compound: CC[C@H](N)C(=O)N[C@H]1CCC[C@H]2CC[C@@H](C(=O)NC(c3ccccc3)c3ccccc3)N2C1=O [Compound 34]
- pKi: 7.66

pKi: −log10 of the molar value.
